Several values for one entry are separate records, joined by “and”; a condition that tells them apart may be missing. Equal values may be shown once. The entries are a selection whose mix differs from that of the whole data set. Activity calls are given as the source filed them. The call rests on the fitted dose curve; in most records, active means well fitted curve in the direction sought with a large enough effect in the repeat runs; inconclusive means weak or mixed curves; inactive means flat fitted curve, though single readings scatter.
Assay: qHTS assay to test for compound auto fluorescence at 535 nm (green) in HepG2 cells (AID 720675)
Conditions: green autofluorescence 485/535 nm, 1 h, at 18.6 µM (top of the series)
From the text: National Center for Advancing Translational Sciences [NCATS]
NIH Chemical Genomics Center [NCGC]
U.S. Environmental Protection Agency [EPA]
National Institutes of Environmental Health Sciences [NIEHS]
National Toxicology Program [NTP]
U.S. Food and Drug Administration [FDA]
Compound auto fluorescence often interferes with screening of the compound library against various biological targets and signaling pathways. Some of these compounds may have fluorophoric properties. Such properties may interfere with the assay outputs resulting in false positives and/or negatives. To decrease such complications and ensure the compound activities are relevant in terms of biological response, the Tox21 10K compound library was screened for auto fluorescence.
From the fluorophores used as reporter signals in our screening assays, the auto fluorescence equivalencies of compounds against three fluorophores have been evaluated: Triamterene, Fluorescein and Rose Bengal sodium for blue, green and red fluorescence, respectively. The fluorescence intensities were measured using Excitation/Emission wavelengths at 405/460nm, 485/535nm and 540/590nm for blue, green and red labels, respectively. This assay includes the green fluorescence data.
Tox21 Assay Protocol Summary:
2,000 HepG2 cells in 5 uL of culture medium (MEM containing 10% FBS) per well were dispensed into black wall/clear bottom 1536-well plates using a Multidrop Combi Dispenser (ThermoFisher Scientific, Waltham, MA). The assay plates were incubated overnight at 37 C to allow cell attachment to the well bottom, followed by the transfer of 23 nL compound or DMSO vehicle by a pintool work station (Kalypsys , San Diego, CA). After the assay plates were incubated for 1 hr at 37 C and 5% CO2, fluorescence intensities in the assay plates were measured by an Envision (PerkinElmer, Shelton, CT) plate reader using three labels for measuring blue, green and red fluorescence at […] 460, 535 and 590 nm respectively.
On the % scale 0 is the no-effect control and ±100 the full control effect.

| Structure (SMILES) | fluorescence, % of fluorescein control |
| --- | --- |
| C/C1=C2N=C(/C=C3N=C(/C(C)=C4\[N-][C@@](C)([C@@H]5N=C1[C@](C)(CCC(=O)NC[C@@H](C)OP(=O)([O-])O[C@H]1[C@@H](O)[C@@H](n6cnc7cc(C)c(C)cc76)O[C@@H]1CO)[C@H]5CC(N)=O)[C@@](C)(CC(N)=O)[C@@H]4CCC(N)=O)[C@@](C)(CC(N)=O)[C@@H]\3CCC(N)=O)C(C)(C)[C@@H]/2CCC(N)=O.[C-]#N.[Co+3] | inactive: 0.0241% |

Same assay, conditions: green autofluorescence 485/535 nm, 1 h, at 46 µM (top of the series)

| Structure (SMILES) | fluorescence, % of fluorescein control |
| --- | --- |
| OCCSCCO | inactive: -0.0604% |
| O=[N+]([O-])c1cccc([N+](=O)[O-])c1 | inactive: -0.195% |
| CN(C)CCS | inactive: -0.195% |
| O=[N+]([O-])OCC(CO[N+](=O)[O-])(CO[N+](=O)[O-])CO[N+](=O)[O-] | inactive: 0.0239% |
| O=[N+]([O-])[O-].[NH4+] | inactive: -0.0034% |
| CCOP(=O)(CC)Oc1ccc([N+](=O)[O-])cc1 (stereo not given) | inactive: -0.0262% |
| CC(C)OP(=O)(F)OC(C)C | inactive: 0.0316% |
| CC(C)N(CCCl)C(C)C | inactive: -0.0233% |

Same assay, conditions: green autofluorescence 485/535 nm, 1 h, at 91.3 µM (top of the series)

| Structure (SMILES) | fluorescence, % of fluorescein control |
| --- | --- |
| Cc1c([N+](=O)[O-])cccc1[N+](=O)[O-] | inactive: -0.0256% and inactive: 0.0047% |
| Cc1cccc([N+](=O)[O-])c1[N+](=O)[O-] | inactive: 0.118% |
| O=[N+]([O-])OCC(CO[N+](=O)[O-])(CO[N+](=O)[O-])CO[N+](=O)[O-] | inactive: 0.0538% |
| Cc1ccc([N+](=O)[O-])cc1[N+](=O)[O-] | inactive: 0.0702% and inactive: 0.101% |
| O=[N+]([O-])[O-].[NH4+] | inactive: 0.0096% and inactive: 0.0147% |
| COc1ccc([N+](=O)[O-])cc1[N+](=O)[O-] | inactive: -0.0336% |
| [NH4+].[O-][Cl+3]([O-])([O-])[O-] | inactive: 0.0362% |
| CC(C)OP(C)(=O)OC(C)C | inactive: 0.0412% and inactive: -0.003% |
| CC(C)N(CCO)C(C)C | inactive: -0.0105% |
| Cc1ccc([N+](=O)[O-])c([N+](=O)[O-])c1 | inactive: 0.0147% |
| CCOP(=O)(CC)OCC | inactive: 0.0455% |
| COP(C)(=O)OC | inactive: -0.0434% |
| CP(=O)(O)OCCC[Si](O)(O)O | inactive: 0.0748% |

Same assay, conditions: green autofluorescence 485/535 nm, 1 h, at 95.7 µM (top of the series)

| Structure (SMILES) | fluorescence, % of fluorescein control |
| --- | --- |
| OCCSCCO | inactive: 0.0121% |
| O=[N+]([O-])c1cccc([N+](=O)[O-])c1 | inactive: -0.21% |
| Nc1cc([N+](=O)[O-])cc([N+](=O)[O-])c1O | inactive: -0.302% |
| [NH4+].[O-][Cl+3]([O-])([O-])[O-] | inactive: 0.0758% |
| CCN(CC)CCCl | inactive: 0.0019% |
| Cc1ccc([N+](=O)[O-])c([N+](=O)[O-])c1 | inactive: -0.0005% |
| COP(C)(=O)OC | inactive: 0.0234% |
| N=C(N)N[N+](=O)[O-] | inactive: -0.0045% |
